In ChEMBL document CHEMBL2321744 (J Med Chem, 2013):
Calls of active or inactive are those of the source. No cut-off for these calls is given here.

Protein sequences, listed by entry. Tags and fused reporters are not part of them. Lines headed by an entry give the natural chain unless they say otherwise; changes in a name come on top.
UniProt O14939: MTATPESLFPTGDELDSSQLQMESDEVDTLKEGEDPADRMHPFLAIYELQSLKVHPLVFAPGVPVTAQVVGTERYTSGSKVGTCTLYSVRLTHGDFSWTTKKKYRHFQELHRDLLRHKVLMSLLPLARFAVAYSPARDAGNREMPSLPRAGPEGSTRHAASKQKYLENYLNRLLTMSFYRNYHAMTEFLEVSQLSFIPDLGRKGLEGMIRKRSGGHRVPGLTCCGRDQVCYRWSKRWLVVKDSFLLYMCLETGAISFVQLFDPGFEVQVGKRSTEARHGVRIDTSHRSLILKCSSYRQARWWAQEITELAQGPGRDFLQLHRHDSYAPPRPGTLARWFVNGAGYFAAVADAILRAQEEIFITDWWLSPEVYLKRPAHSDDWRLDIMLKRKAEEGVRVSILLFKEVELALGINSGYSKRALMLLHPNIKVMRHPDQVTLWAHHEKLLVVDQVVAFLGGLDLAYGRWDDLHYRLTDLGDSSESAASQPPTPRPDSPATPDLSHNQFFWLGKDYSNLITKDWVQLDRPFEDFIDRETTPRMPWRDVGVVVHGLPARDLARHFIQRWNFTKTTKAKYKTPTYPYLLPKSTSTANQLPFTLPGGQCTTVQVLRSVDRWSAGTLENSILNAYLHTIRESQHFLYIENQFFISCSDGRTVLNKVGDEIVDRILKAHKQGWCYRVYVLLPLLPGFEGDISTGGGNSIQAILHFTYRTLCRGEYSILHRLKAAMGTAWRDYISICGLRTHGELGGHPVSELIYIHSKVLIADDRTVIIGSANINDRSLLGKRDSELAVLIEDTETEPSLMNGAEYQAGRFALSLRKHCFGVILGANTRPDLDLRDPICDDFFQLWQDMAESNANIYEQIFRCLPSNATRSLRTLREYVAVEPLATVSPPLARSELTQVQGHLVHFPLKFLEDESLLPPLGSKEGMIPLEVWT

Target: Phospholipase D2 (Homo sapiens, UniProt O14939)
Experiment: Inhibition of GFP-tagged PLD2 in HEK293 cells assessed as deuterated 1-butanol incorporation at […] pretreated for 5 mins prior to substrate addition measured after 30 mins by mass spectrometry
Assay type: cell-based

O=C(NCCN1CCC2(CC1)C(=O)NCN2c1cccc(F)c1)c1ccc2ccccc2c1
inhibition: Active
